Assay results taken from patent US8309140B2, “Effect of porcine sheath proteins on the regeneration activity of periodontal ligament” (priority 2005, dated 2012).

How the values were obtained:
[1] = tested on: human periodontal ligament (HPDL) cells; assay: ALP inducing activity of HPDL cells on cell culture system; assay type: cell-based; settings: 96 h
From the text: Human periodontal ligament (HPDL) cells were obtained according to the method of Somerman et al., (1988) from healthy premolars which were extracted from the patients for orthodontic reasons. The cells were precultured for 4-6 passages with a-MEM medium to establish the primary cell line. The cells were maintained in the alpha modification of Eagle's medium (α-MEM; Life Technologies, Grand Island, N.Y., USA) containing 10% fetal bovine serum (FBS; Asahi Technoglass, Chiba, Japan) and 1% antibiotics (100 U/ml of Penicillin-G and 100 μg/ml of Streptomycin sulfate; Gibco BRL, Grand Island, N.Y., USA) at 37° C. in a humidified 5% CO2 atmosphere. […]
HPDL cells were distributed in 96-well plates at a density of approximately 5×10^5 cells per a well and incubated for 24 h. […] After 96 additional hours of incubation, the cells were washed once with PBS, and ALP activity was determined after a 10 min incubation at 37° C. in 10 mM p-nitrophenylphosphate (substrate) in 100 mM 2-amino-2-methyl-1,3-propanediol-HCl buffer (pH 10.0) containing 5 mM MgCl2. After adding 0.2 M NaOH, which stopped the reaction, the absorbance at 405 nm was read on a plate reader. […]
(§1) HPDL cells of approximately 5×10^5 cells per well were distributed in 96-well plates and incubated for 24 h. […] After 96 additional hours of incubation, ALP activity was determined using p-nitrophenylphosphate as a substrate. […]

ST2 cells = assay: ALP inducing activity of ST2 cells on cell culture system; assay type: cell-based, mouse
From the text: Human periodontal ligament (HPDL) cells were obtained according to the method of Somerman et al., (1988) from healthy premolars which were extracted from the patients for orthodontic reasons. The cells were precultured for 4-6 passages with a-MEM medium to establish the primary cell line. The cells were maintained in the alpha modification of Eagle's medium (α-MEM; Life Technologies, Grand Island, N.Y., USA) containing 10% fetal bovine serum (FBS; Asahi Technoglass, Chiba, Japan) and 1% antibiotics (100 U/ml of Penicillin-G and 100 μg/ml of Streptomycin sulfate; Gibco BRL, Grand Island, N.Y., USA) at 37° C. in a humidified 5% CO2 atmosphere. The ST2 cells (Riken Cell Bank, Tsukuba, Japan), an osteoblast-like mouse bone marrow stromal cell line, were cultured under the same conditions.
as §1
The ALP inducing activities of synthetic peptides using the cell culture of HPDL cells and ST2 cells were examined. […] The ALP activity was determined after 10 min incubation at 37° C. and the absorbance at 405 nm was read using a plate reader, after adding 0.2 M NaOH to stop the reaction. […]

B1: BMP-2: recombinant growth factor, control (protein, UniProt P12643 283-396, looked up)
Bone morphogenetic protein 2: QAKHKQRKRLKSSCKRHPLYVDFSDVGWNDWIVAPPGYHAFYCHGECPFPLADHLNSTNHAIVQTLVNSVNSKIPKACCVPTELSAISMLYLDENEKVVLKNYQDMVVEGCGCR
[1]; 50 μg/ml protein or peptide, TGF-β1 50 ng/ml, BMP-2 500 ng/ml, 10 nM 1α-25dihydroxy-Vitamin D3
  ALP activity of HPDL cells (porcine sheath proteins and synthetic peptides): reduced the ALP activity of HPDL cells
[1]; peptides 50 μg/mL, TGF-β1 1 ng/mL, BMP-2 1 μg/mL, 10 nM 1α-25dihydroxy-vitamin D3
  ALP inducing activity of HPDL cells (Example 4): not influenced
ST2 cells; 50 μg/ml protein or peptide, TGF-β1 50 ng/ml, BMP-2 500 ng/ml
  ALP activity of ST2 cells (porcine sheath proteins and synthetic peptides): enhanced
ST2 cells; peptides 25 or 50 μg/mL, BMP-2 1 μg/mL, TGF-β1 0.5 or 1 ng/mL
  ALP activity of ST2 cells (Example 4): enhanced
